Results from US20030203890A1 (priority 2001, published 2003).

By UniProt entry, the sequences of proteins in these tests, tags left out.
UniProt P62942, whole entry: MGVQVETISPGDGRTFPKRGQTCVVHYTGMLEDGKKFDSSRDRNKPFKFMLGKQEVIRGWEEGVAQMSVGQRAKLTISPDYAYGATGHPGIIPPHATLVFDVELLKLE

Target: FKBP12 (Homo sapiens, UniProt P62942)
Assay: K1 test procedure: inhibition of peptidyl-prolyl isomerase (rotamase) activity of FKBP12, chymotrypsin-coupled assay
Assay type: biochemical
Settings: read-out: K1, apparent Ki, Table XLIII, Formulas XXV to XXIX

**Q.** With `O=C(C(=O)N1CCC[C@H]1C(=O)OCCCc1ccccc1)c1nccs1` as the compound, how does the Ki read?
**A.** 100 nM
